{
  "sequences": {"note": "Amino acid sequences for entries named in this document (tags omitted).", "UniProt P07949, whole entry": "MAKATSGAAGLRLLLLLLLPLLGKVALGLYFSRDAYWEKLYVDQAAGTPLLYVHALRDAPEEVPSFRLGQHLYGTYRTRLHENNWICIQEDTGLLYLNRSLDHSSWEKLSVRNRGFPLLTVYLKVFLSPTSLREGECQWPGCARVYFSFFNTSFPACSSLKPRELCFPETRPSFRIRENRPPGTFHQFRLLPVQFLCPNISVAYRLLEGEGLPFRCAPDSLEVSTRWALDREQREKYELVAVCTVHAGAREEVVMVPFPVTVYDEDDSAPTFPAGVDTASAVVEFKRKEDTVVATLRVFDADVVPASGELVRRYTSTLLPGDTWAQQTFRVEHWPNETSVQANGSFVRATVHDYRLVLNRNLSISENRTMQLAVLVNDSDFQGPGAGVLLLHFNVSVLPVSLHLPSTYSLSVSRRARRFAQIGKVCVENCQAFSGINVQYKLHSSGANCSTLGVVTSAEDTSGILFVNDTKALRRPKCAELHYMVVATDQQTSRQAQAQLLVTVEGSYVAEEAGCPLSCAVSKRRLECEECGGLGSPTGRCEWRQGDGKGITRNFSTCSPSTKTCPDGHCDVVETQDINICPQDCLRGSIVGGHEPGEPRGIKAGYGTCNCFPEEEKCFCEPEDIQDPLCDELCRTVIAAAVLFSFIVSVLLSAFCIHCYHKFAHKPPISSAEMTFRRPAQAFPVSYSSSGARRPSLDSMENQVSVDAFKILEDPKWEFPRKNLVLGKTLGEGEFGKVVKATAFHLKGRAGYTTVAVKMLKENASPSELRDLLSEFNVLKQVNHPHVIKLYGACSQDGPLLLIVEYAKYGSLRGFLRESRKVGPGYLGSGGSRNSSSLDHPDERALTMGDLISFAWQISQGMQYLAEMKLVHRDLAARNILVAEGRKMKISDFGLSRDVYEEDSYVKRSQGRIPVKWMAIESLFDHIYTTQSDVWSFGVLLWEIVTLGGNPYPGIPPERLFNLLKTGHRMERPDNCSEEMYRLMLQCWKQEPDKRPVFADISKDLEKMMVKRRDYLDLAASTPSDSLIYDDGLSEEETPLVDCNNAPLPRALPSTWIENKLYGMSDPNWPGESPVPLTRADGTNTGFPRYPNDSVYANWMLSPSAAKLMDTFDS"},
  "source": "ChEMBL document CHEMBL5150004",
  "about": "“Targeting Rearranged during Transfection in Cancer: A Perspective on Small-Molecule Inhibitors and Their Clinical Development” (J Med Chem, 2021)",
  "molecular_target": "Proto-oncogene tyrosine-protein kinase receptor Ret (Homo sapiens, UniProt P07949)",
  "experiment": "Inhibition of RET (unknown origin) by HTRF assay",
  "data": [
    {"smiles": "CNC(=O)c1cc(Oc2ccc(NC(=O)Nc3ccc(Cl)c(C(F)(F)F)c3)c(F)c2)ccn1", "note": "[REGORAFENIB]", "values": [
      {"measurement": "IC50", "value": 1.5, "unit": "nM"}
    ]}
  ]
}
